Among the data in BindingDB's records for doi:10.1021/jm800648y (University of Athens, 2008) are IC50 values, retold here.

Protein sequences, listed by entry. Tags and fused reporters are not part of them.
UniProt P06493, whole entry, looked up: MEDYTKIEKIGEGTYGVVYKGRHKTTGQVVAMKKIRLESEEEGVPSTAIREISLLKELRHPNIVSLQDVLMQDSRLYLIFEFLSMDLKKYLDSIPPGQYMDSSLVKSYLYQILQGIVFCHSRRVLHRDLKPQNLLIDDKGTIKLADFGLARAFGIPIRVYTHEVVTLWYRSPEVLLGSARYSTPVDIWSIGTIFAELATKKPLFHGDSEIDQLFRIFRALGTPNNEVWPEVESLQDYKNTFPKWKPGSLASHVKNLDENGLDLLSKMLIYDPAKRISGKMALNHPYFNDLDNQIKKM
UniProt P14635, whole entry, looked up: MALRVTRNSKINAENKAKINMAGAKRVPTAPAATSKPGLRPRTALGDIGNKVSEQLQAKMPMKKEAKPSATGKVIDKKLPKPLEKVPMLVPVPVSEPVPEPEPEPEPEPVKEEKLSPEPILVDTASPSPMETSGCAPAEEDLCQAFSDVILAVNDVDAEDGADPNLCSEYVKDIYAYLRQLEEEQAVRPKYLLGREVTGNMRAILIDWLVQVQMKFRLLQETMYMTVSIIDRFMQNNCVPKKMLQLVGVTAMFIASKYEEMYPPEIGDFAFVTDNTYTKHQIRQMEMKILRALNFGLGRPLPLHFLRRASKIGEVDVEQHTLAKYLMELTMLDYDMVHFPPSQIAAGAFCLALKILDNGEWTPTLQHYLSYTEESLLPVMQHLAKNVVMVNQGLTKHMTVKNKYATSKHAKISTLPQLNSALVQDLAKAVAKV

By IC50 is commonly meant the concentration at which inhibition is half-maximal. The low end stands for inhibition by little substance, the high end for a need for much substance.

This assay concerns the target Cyclin-dependent kinase 1/cyclin B1 (Homo sapiens, UniProt P06493+P14635). Briefly: Inhibition of CDK1/cyclin B.

Molecule `O=C1Nc2cc(Br)ccc2C1=C1Nc2ccccc2C1=NOCCN1CCN(CCO)CC1` showed an IC50 of 300 nM.
With `O=C1Nc2cc(Br)ccc2/C1=C1/Nc2ccccc2/C1=N\OCCN1CCNCC1`, the IC50 turned out to be 600 nM.
